This is an account of results in PubChem BioAssay AID624141 (Broad Institute, 2012).

Protein sequences, listed by entry. Tags and fused reporters are not part of them.
UniProt P01106, whole entry: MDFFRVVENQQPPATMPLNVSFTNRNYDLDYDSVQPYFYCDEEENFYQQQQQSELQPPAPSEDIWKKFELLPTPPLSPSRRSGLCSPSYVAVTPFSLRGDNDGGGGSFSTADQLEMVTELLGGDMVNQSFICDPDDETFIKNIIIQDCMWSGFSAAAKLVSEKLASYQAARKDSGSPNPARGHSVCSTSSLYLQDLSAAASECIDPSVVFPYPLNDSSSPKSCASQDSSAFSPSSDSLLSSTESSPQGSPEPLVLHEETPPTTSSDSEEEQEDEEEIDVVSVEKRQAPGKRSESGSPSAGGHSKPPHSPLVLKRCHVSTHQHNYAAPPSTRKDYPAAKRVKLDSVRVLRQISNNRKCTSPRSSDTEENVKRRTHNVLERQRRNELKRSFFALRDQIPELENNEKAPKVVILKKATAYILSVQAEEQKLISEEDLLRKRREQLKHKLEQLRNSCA

The list shows a part of the results, in another mix than the full data. Some salts or complexes appear as unconnected parts, following the source record. Calls of active or inactive are those of the source.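 How the source made its calls: active means spot fluorescence over background with P-value below 7% in all four replicate spots, showing protein binding; inactive means the rest.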

The target of the assay is Myc proto-oncogene protein (Homo sapiens) (UniProt P01106). Briefly: small molecules binding His-tagged c-Myc – biochemical, small molecule microarray, anti-His fluorescence, primary screen (AID 624141).
Take `CN(C(=O)Cc1ccc(Cl)c(Cl)c1)C1CCCCC1N1CCCC1` (stereo unspecified): the outcome was inactive.
The same measure for `C/C1=C2N=C(/C=C3N=C(/C(C)=C4\[N-][C@@](C)([C@@H]5N=C1[C@](C)(CCC(=O)NC[C@@H](C)OP(=O)(O)O[C@H]1[C@@H](O)[C@@H](n6cnc7cc(C)c(C)cc76)O[C@@H]1CO)[C@H]5CC(N)=O)[C@@](C)(CC(N)=O)[C@@H]4CCC(N)=O)[C@@](C)(CC(N)=O)[C@@H]\3CCC(N)=O)C(C)(C)[C@@H]/2CCC(N)=O.[C-]#N.[Co+3]`: “inactive”; for `C=CC1C=C(C)C/C(=N\P(=O)(Oc2ccccc2)Oc2ccccc2)N1Cc1ccc(OC)cc1` (stereo unspecified): “inactive”.
The same measure for `COc1ccc(CN2/C(=N/P(=O)(Oc3ccccc3)Oc3ccccc3)CC(C)=CC2C)cc1` (stereo unspecified): “inactive”.
Take `COc1ccc(CN2/C(=N\P(=O)(Oc3ccccc3)Oc3ccccc3)Cc3ccccc3C2C2CC2)cc1` (stereo unspecified): the result was inactive.
The same measure for `C/C1=C2N=C(/C=C3N=C(/C(C)=C4\[N-][C@@](C)([C@@H]5N=C1[C@](C)(CCC(=O)NCC(C)OP(=O)(O)O[C@@H]1[C@H](O)[C@H](n6cnc7cc(C)c(C)cc76)O[C@H]1CO)[C@H]5CC(N)=O)[C@@](C)(CC(N)=O)[C@@H]4CCC(N)=O)[C@@](C)(CC(N)=O)[C@@H]\3CCC(N)=O)C(C)(C)[C@@H]/2CCC(N)=O.[C-]#N.[Co+3]` (stereo partly specified): “inactive”.
